Reference: article PMC8712300 (European Journal of Nuclear Medicine and Molecular Imaging, 2021)

Biological target: central benzodiazepine receptor (CBR)

CC(=O)N(Cc1ccccc1OCF)c1cnccc1Oc1ccccc1
Ki: > 100 µM
